According to PMC7338617 (Redox Biology, 2020):
Residue numbers refer to the chain shown, from its start.

Experiments:
Assay in all cases: FRET or BRET
Rluc-tagged APJ-S369A = target: T1, Rluc-tagged APJ-S369A (UniProt P35414 1-380, S369A)
T1 sequence: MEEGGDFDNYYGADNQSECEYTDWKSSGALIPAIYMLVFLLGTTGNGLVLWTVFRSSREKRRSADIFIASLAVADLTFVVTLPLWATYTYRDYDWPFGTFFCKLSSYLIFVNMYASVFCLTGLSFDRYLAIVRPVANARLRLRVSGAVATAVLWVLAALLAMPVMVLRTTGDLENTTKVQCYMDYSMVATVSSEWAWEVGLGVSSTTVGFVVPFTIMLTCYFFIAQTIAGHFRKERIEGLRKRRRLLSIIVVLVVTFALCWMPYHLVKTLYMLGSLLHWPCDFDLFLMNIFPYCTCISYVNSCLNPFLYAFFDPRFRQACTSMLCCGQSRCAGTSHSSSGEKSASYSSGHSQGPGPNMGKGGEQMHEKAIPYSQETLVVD

Rluc-tagged APJ-S348A = target: T2, Rluc-tagged APJ-S348A (UniProt P35414 1-380, S348A)
T2 sequence: T1 sequence with S348A, A369S

Rluc-tagged APJ-S345A = target: T3, Rluc-tagged APJ-S345A (UniProt P35414 1-380, S345A)
T3 sequence: T1 sequence with S345A, A369S

Rluc-tagged APJ-S335A = target: T4, Rluc-tagged APJ-S335A (UniProt P35414 1-380, S335A)
T4 sequence: T1 sequence with S335A, A369S

[1] = target: T5, Rluc-tagged WT APJ (apelin receptor) (UniProt P35414 1-380)
T5 sequence: T1 sequence with A369S

Rluc-tagged APJ-S339A = target: T6, Rluc-tagged APJ-S339A (UniProt P35414 1-380, S339A)
T6 sequence: T1 sequence with S339A, A369S

EC50 of apelin-36 for the BRET between the pair (Rluc-tagged APJ-S369A): 4.99 nM
EC50 of apelin-36 for the BRET between the pair (Rluc-tagged APJ-S348A): 4.95 nM
EC50 of apelin-36 for the BRET between the pair (Rluc-tagged APJ-S345A): 4.36 nM
EC50 of apelin-36 for the BRET between the pair (Rluc-tagged APJ-S335A): 4.5 nM
EC50 of apelin-36 for the BRET between the pair [1]: 4.54 nM
EC50 of apelin-36 for the BRET between the pair (Rluc-tagged APJ-S339A): 9.72 nM
B1: EGFP-tagged β-arrestin1 (natural protein)
chain: MGDKGTRVFKKASPNGKLTVYLGKRDFVDHIDLVDPVDGVVLVDPEYLKERRVYVTLTCAFRYGREDLDVLGLTFRKDLFVANVQSFPPAPEDKKPLTRLQERLIKKLGEHAYPFTFEIPPNLPCSVTLQPGPEDTGKACGVDYEVKAFCAENLEEKIHKRNSVRLVIRKVQYAPERPGPQPTAETTRQFLMSDKPLHLEASLDKEIYYHGEPISVNVHVTNNTNKTVKKIKISVRQYADICLFNTAQYKCPVAMEEADDTVAPSSTFCKVYTLTPFLANNREKRGLALDGKLKHEDTNLASSTLLREGANREILGIIVSYKVKVKLVVSRGGLLGDLASSDVAVELPFTLMHPKPKEEPPHREVPESETPVDTNLIELDTNDDDIVFEDFARQRLKGMKDDKDEEDDGTGSPHLNNR
